In IntAct's records for PubMed 20363749:

B1: Pentraxin-related protein PTX3 (Homo sapiens), P26022 (parent)
chain: MHLLAILFCALWSAVLAENSDDYDLMYVNLDNEIDNGLHPTEDPTPCACGQEHSEWDKLFIMLENSQMRERMLLQATDDVLRGELQRLREELGRLAESLARPCAPGAPAEARLTSALDELLQATRDAGRRLARMEGAEAQRPEEAGRALAAVLEELRQTRADLHAVQGWAARSWLPAGCETAILFPMRSKKIFGSVHPVRPMRLESFSACIWVKATDVLNKTILFSYGTKRNPYEIQLYLSYQSIVFVVGGEENKLVAEAMVSLGRWTHLCGTWNSEEGLTSLWVNGELAATTVEMATGHIVPEGGILQIGQEKNGCCVGGGFDETLAFSGRLTGFNIWDSVLSNEEIRETGGAESCHIRGNIVGWGVTEIQPHGGAQYVS

Variants of: B1
Conditions: with fgf2_human FGF2, P09038

Question: How did the “effect of a mutation on the interaction” value turn out when C47S;C49S;C103S was run?
Answer: Its value is “disrupting interaction strength”.

Question: Which “effect of a mutation on the interaction” value does the source give for C103S here?
Answer: The value was “decreasing interaction strength”.
